Reference: patent US6296870A, “Liposomes containing active agents” (Duke University, priority 1998, dated 2001)

Experiments:
[1] = TAXOL solubilized in MOPC micelle suspension; format: physicochemical
Method: The concentration of TAXOL® in aqueous solution or aqueous micelle suspension was detected and measured using spectrophotometric absorbance at a wavelength of 230 nm (FIG. 21). The concentration of TAXOL® in a solution or suspension could be measured in the range of 5-50 micromolar. For concentrations higher than 50 micromolar, samples were diluted in methanol and the original concentrations were back-calculated.
Samples were prepared containing the required aliquot of TAXOL® in methanol and MOPC (a micelle forming surfactant) in chloroform. These components were mixed together in glass culture tubes, and the mixture was dried and kept under vacuum for approximately 15 hours to evaporate the solvent. MOPC was chosen because it has an acyl chain composition that matches the di-chain phospholipid, stearoyloleoylphosphatidylcholine, that was used to form the lipid bilayers of encapsulating liposomes, as discussed below. […] Surfactants with high CMCs (e.g., in the mM range) readily dissolve lipid membranes, even when the membranes contain cholesterol.
The dried MOPC/TAXOL® film was then hydrated with buffer (10 mM phosphate buffer in 0.8% saline at pH 7.4), centrifuged at 2000 rpm for ten minutes to spin down any undissolved TAXOL® (depending on the ratio of MOPC to TAXOL®, the drug can precipitate out as small crystals detectable with an optical light microscope). The remaining supernatant is then dissolved in methanol and assayed for TAXOL® content. TAXOL® was quantified against the calibration curve of TAXOL® in methanol (FIG. 21). The graph of FIG. 22 represents the maximum amount of TAXOL® in aqueous micelle suspension as a function of time after preparation.
To evaluate how much TAXOL® can be solubilized by MOPC micelles as a function of MOPC concentration, we measured the amount of TAXOL® solubilized by MOPC micelles as the concentration of MOPC was increased from 0 to 20 mM. […] It is expected that TAXOL® will keep pace with MOPC concentration, possibly up to the solubility limit of MOPC which is in the molar range. […]

[2] = TAXOL loading in liposomes hydrated with micellized MOPC/TAXOL; format: physicochemical; details: micellized MOPC 1.5 mM / 0.25 mM TAXOL

CC(=O)O[C@H]1C(=O)[C@@]2(C)[C@H]([C@H](OC(=O)c3ccccc3)[C@]3(O)C[C@H](OC(=O)[C@H](O)[C@@H](NC(=O)c4ccccc4)c4ccccc4)C(C)=C1C3(C)C)[C@]1(OC(C)=O)CO[C@@H]1C[C@@H]2O [TAXOL®]
limiting TAXOL/MOPC mole ratio in micelles [1]: 0.2 mole ratio | TAXOL relative to its natural solubility limit ([1]; 1 mM in micelle suspension): 1000 times | precipitation of TAXOL from micelles ([1]; increasing amounts of TAXOL): does not occur significantly for the first four hours, but then proceeds rapidly as higher amounts of TAXOL® are solubilized | TAXOL relative to its natural solubility limit [2]: 250 times
